AlphaSeq binding of Ab-14 light chain variants to a spike HR2 peptide

All variants were tested on one target, the spike HR2 peptide PDVDLGDISGINAS (SARS-CoV-2).

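The parent was found by panning a naive human phage display library on the peptide. The variants were designed computationally from a first round of random CDR variants and then made and measured. Several design methods are mixed in this list. In AlphaSeq, yeast of one mating type display the scFv and yeast of the other type display the target. Mating (16 h, 30 °C) was followed by selection of diploids and sequencing of their barcodes. The ratio of observed to expected reads was calibrated, replicate by replicate, on BCL2-family standards whose Kd was known from biolayer interferometry. There are six technical replicates.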

Each scFv is VH, the linker GGGGSGGGGSGGGGS, VL, as in the parent Ab-14, and differs from it in the CDRs of the light chain only.
VH: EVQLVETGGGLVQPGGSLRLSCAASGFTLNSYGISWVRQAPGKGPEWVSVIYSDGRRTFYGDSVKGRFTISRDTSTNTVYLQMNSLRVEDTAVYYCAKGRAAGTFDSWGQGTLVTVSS
VL: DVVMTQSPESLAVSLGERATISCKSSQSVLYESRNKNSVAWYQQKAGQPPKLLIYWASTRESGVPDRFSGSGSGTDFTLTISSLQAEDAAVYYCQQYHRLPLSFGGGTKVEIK

The parent's light chain CDRs are KSSQSVLYESRNKNSVA, WASTRES, QQYHRLPLS; each variant's own CDRs replace them letter for letter. This list holds designs with more than six substitutions. Values are log10 of the apparent Kd in nM; lower means stronger binding. The mean shown is taken over the replicates in which the pair was detected. Where no diploid with the target was found in any replicate, the entry reads "nd": below detection, most likely a poor binder, though not proof of it. The authors' rule: three or more of the six replicates give a measured affinity, fewer mean a poor binder. Values of this round are not directly comparable with the first-round values of the same sequences. Three control strains display no target. For all light chain designs, 4% of the pairings with them gave a signal, with a median of 2.64 and one signal in twenty below 1.59, so weak values seen in few replicates may be background. The control count says in how many pairings with the empty strains this scFv gave a signal.

With YMDSGDVDGQKSKESIA, DADHSGA, QQYARLPLG the result was 1.41 (6 of 6 replicates; controls 0 of 18).
With TISQMTSLFSQSINNVA, EVSTREP, QQYDRLPLS the result was 0.84 (6 of 6 replicates; controls 2 of 18).
With KLEPSELEESRNKNSVA, SASTRES, QDYHRLPLS the result was 0.83 (6 of 6 replicates; controls 1 of 18).
With QFSNTNMQGNAMWANVA, EATYAEE, QQYARLPLQ the result was nd (0 of 6 replicates; controls 0 of 18).
With RIRESMFYSHEGRRNIA, QASIREI, QQYSQLPLF the result was 0.02 (6 of 6 replicates; controls 0 of 18).
With HLELEYMQMMKDHNSIA, DTESKTD, QQYFRLPIS the result was 1.39 (6 of 6 replicates; controls 0 of 18).
With MVNNIMDHLSKQTNNVA, ETVTREE, QQYDRLPLS the result was 0.61 (6 of 6 replicates; controls 0 of 18).
With SFTIEGLQQQEQYKSVA, GEQSKVD, QQYGRLPLS the result was 1.16 (6 of 6 replicates; controls 0 of 18).
With KLYNNVGTMSHNKQSIA, DMERRED, QQYHRLPLS the result was 0.20 (6 of 6 replicates; controls 1 of 18).
With MFSSLMEYGSRYKNSVA, QASTRED, QQYHWLPLS the result was 0.68 (5 of 6 replicates; controls 0 of 18).
With KLASVTGTEKVHGNNVA, EMETREK, QQYNRLPLS the result was 0.17 (6 of 6 replicates; controls 2 of 18).
With MISNVMNTLTREGNNVA, DLAEREK, QQYFRLPLS the result was 0.49 (6 of 6 replicates; controls 1 of 18).
With KIELDLTRYNNSYSAIA, GETQKAN, QQYSRLPLV the result was 0.92 (6 of 6 replicates; controls 0 of 18).
With KVSEFMKGLMMRTDSIA, DNTTRGQ, QQYDRLPLS the result was 2.17 (5 of 6 replicates; controls 0 of 18).
With KVSMLHWYESRNKNSVA, EASTREQ, QDYHRLPLS the result was 0.35 (6 of 6 replicates; controls 0 of 18).
With GFSDSITETIADANSIA, DRDARDV, QQYSRLPLI the result was 1.03 (6 of 6 replicates; controls 0 of 18).
With KISFQYRYEQLSKNNIA, EVQTRLK, QQYHRLPLS the result was 1.17 (6 of 6 replicates; controls 1 of 18).
With KISQMVRVGSTASNSIA, EEQTRAK, QQYHRLPLS the result was 1.11 (6 of 6 replicates; controls 0 of 18).
With HLSYSTDLESVHKNSIA, DLMTRES, QQYHRLPLS the result was nd (0 of 6 replicates; controls 1 of 18).
With KLYEMSASTMSNIRNVA, DNSTREQ, QQYNRLPLS the result was 1.80 (6 of 6 replicates; controls 2 of 18).
With KLQMMVEMESRNPNSVA, SASTRLL, QQYHRLPLS the result was -0.16 (6 of 6 replicates; controls 0 of 18).
With KLQQSWMMQWRNKNSVA, HASTRLS, QQYHRLPLS the result was 0.82 (6 of 6 replicates; controls 2 of 18).
With SLSESEREEFSVEQNIA, DGTEHMR, QQYFQLPLL the result was 1.10 (6 of 6 replicates; controls 0 of 18).
With KLGQVTETMSLNRNSVA, HMSTRED, QQYHRLPLS the result was 0.60 (6 of 6 replicates; controls 0 of 18).
With KSQMSEGYEQRNKNSVA, EASTRCD, QQYHRLPLS the result was -0.01 (6 of 6 replicates; controls 1 of 18).
With KLQMMVEMESRNKMSVA, SASTRLS, QQYHRLPLS the result was -0.10 (6 of 6 replicates; controls 0 of 18).
With KIGATLNQLMHQKNNVA, DLVEREN, QQYHRLPLS the result was -0.29 (6 of 6 replicates; controls 0 of 18).
With TISMVMNHMTRNKNNVA, NMDMRTV, QQYDRLPLS the result was 0.12 (6 of 6 replicates; controls 0 of 18).
With HIAMMVGTKGYNKNSVA, NAETRED, QQYHRLPLS the result was 1.89 (6 of 6 replicates; controls 1 of 18).
With KVQQSELGGSRNKNSVA, EASTRED, QQYHRLPLS the result was 0.01 (1 of 6 replicates; controls 0 of 18).
With NISHFMETTSKNINNVA, EMTMREV, QQYHHLPLS the result was 0.61 (6 of 6 replicates; controls 1 of 18).

From the AlphaSeq antibody data of Li et al. 2023 (doi:10.1038/s41467-023-39022-2), copy in the FLAb collection.